Each molecule was assayed against human orexin receptor 1 (Homo sapiens (Human), UniProt O43613) (assay: Orexin antagonist activity, intracellular calcium FLIPR assay (orexin receptor 1)). Conditions: RBL-2H3 cells stably expressing human orexin receptor 1; Ca2+ dye FLIPR; compound 15 minutes before orexin-A at approximately 80% maximal response; read-out: Human Orexin1R IC50.
Format: cell-based
Procedure: Orexin antagonist activity was determined by measuring changes in intracellular calcium levels using a Ca^2+ sensitive fluorescent dye. The changes in fluorescent signal were monitored by Fluorescent Imaging Plate Reader (FLIPR™) technology available from Molecular Devices, LLC, U.S.A. Orexin mediated increases in intracellular Ca^2+ concentration were readily detected upon activation with orexin-A. Twenty-four hours prior to the assay, RBL-2H3 cells stably expressing either human orexin receptor 1 or human orexin receptor 2 were seeded in cell culture medium in black, clear-bottom 384-well plates (commercially available from Corning Inc., U.S.A.) and grown overnight at 37° C., 5% CO2. On the day of the assay, cell culture media was removed and cells were loaded with Calcium 5 Dye (commercially sold by Molecular Devices, LLC, U.S.A.) for 1 hour at 37° C., 5% CO2. Test compounds (at 10 point half log concentration response curves from 10 μM) were added to cells for 15 minutes prior to the addition of orexin-A to all wells, to achieve a final concentration that produces approximately an 80% maximal response. The IC50 values were determined from ten point concentration response curves. Curves were generated using the average of two wells for each data point.

Sequences of proteins named here, by UniProt entry; tags and fusion partners are left off.
UniProt O43613, whole entry: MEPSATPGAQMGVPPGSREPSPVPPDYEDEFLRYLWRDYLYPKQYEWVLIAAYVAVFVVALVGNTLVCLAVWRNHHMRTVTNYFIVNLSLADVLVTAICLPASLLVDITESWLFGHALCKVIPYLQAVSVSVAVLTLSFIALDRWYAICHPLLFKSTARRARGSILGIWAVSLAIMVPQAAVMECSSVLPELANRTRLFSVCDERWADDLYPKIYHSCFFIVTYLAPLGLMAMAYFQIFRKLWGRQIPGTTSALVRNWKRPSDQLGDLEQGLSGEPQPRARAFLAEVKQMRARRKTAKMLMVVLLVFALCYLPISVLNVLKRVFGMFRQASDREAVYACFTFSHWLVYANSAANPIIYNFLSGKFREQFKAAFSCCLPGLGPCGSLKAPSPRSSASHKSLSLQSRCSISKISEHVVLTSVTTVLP

Row | IC50 | Compound
1 | 564 nM | O=C(NC1CC(F)(F)CC1Nc1nc2ccc(Cl)cc2s1)c1ccccc1-n1nccn1 (single isomer, unassigned) [Example 106, N-{2-[(6-Chloro-1,3-benzothiazol-2-yl)amino]-4,4-difluorocyclopentyl}-2-(2H-1,2,3-triazol-2-yl)benzamide]
2 | 17 nM | O=C(NC1CC(F)(F)CC1Nc1nc2ccc(Cl)cc2s1)c1ccccc1-n1nccn1 (single isomer, unassigned) [Example 105, N-{2-[(6-Chloro-1,3-benzothiazol-2-yl)amino]-4,4-difluorocyclopentyl}-2-(2H-1,2,3-triazol-2-yl)benzamide]
3 | 18 nM | O=C(N[C@H]1CCC[C@@H]1Nc1nc2ccc(Cl)cc2s1)c1ccccc1-n1nccn1 [Example 91, N-[(1S,2S)-2-[(6-Chloro-1,3-benzothiazol-2-yl)amino]cyclopentyl]-2-(2H-1,2,3-triazol-2-yl)benzamide]
